This test has as its target T1, human TLR4 (Homo sapiens, UniProt O00206).
T1 construct: expressed in transfected cells; host or cells: HEK 293 (gift from Dr. Michael Fessler, NIEHS)
The experiment in a line: IL-8 production by ELISA in HEK TLR4-MD2-CD14 cells. It counts as cell-based. Particulars: PMB added to cultures. The method, then: HEK cell lines stably expressing CD14 and MD2 alone (HEK MD2-CD14), or co-expressed with human TLR2 (HEK TLR2-MD2-CD14) or human TLR4 (HEK TLR4-MD2-CD14) were transfected with a plasmid encoding firefly luciferase (F) under control of the NF-κB promoter along with a plasmid expressing Renilla luciferase (R) under control of the thymidine kinase promoter as a transfection control. Cell lines were cultured for 6 hours with media alone, LPS (100 ng/mL), HS (100 μg/mL), or Pam3CSK4 (2 μg/mL). FIG. 5A is a graph showing the ratio of F/R was measured by dual luciferase reporter assay to determine NF-κB activation of lysed cells, *p<0.05 compared with media alone. FIG. 5B is a graph showing results supernatants analyzed for IL-8 production by ELISA. FIG. 5C is a graph showing IL-8 production in response to LPS and HS+/−PMB in HEK TLR4-MD2-CD14 cells, *p>0.05. FIG. 5D is a graph showing +/− heparanase (Hpase) in HEK TLR4-MD2-CD14 cells, *p<0.05. Experiments were performed in triplicate or quadruplicate. Results are representative of two to three independent experiments. […]
A heterodimer of different TLRs is required for some PAMPs. […] The ratio of luminescence produced by firefly luciferase to Renilla luciferase (F/R) was then measured in response to media alone, LPS, HS, and Pam3CSK4. The production of IL-8, which is downstream of NF-κB activation, by ELISA was also measured. […]
For orientation: ELISA stands for enzyme-linked immunosorbent assay.

Amino acid sequences for entries named in this document (tags omitted). Residues count along the entry.
UniProt O00206, 24-839: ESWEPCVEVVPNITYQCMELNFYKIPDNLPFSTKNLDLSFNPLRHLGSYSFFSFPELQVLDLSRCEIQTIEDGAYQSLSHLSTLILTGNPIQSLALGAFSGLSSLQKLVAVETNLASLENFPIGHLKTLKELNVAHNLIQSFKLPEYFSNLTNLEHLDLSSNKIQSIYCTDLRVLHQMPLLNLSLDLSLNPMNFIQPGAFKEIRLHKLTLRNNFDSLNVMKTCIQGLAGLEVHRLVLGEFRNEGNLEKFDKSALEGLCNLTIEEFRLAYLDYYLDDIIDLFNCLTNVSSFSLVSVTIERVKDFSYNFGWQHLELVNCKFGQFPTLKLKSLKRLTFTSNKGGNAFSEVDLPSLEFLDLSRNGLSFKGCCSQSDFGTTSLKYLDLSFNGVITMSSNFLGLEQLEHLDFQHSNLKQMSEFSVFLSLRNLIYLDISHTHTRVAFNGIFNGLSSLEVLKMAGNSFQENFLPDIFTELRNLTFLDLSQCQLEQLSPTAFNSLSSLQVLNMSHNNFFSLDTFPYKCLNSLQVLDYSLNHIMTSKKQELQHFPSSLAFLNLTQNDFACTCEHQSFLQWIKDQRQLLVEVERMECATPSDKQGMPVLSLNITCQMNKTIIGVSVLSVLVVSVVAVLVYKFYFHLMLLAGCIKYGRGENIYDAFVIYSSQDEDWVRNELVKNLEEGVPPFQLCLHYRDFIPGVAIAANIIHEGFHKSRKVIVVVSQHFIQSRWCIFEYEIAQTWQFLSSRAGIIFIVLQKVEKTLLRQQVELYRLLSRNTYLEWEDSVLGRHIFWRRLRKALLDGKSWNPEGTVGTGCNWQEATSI

For the substance polymyxin B [PMB, reference compound], the “effect on IL-8 expression resulting from HS treatment” value was “but not HS treatment” and the “effect on IL-8 expression resulting from LPS treatment” value is reported as “inhibited”.

Values taken from patent publication US20160109459A1, “Compositions And Methods For Heparan Sulfate As A Biomarker For Transplant Rejection” (Duke University, priority 2012, published 2016).
